# Assay results taken from patent US20050033035A1, “Mutants of igf binding proteins and methods of production of antagonists thereof” (priority 2001, published 2005).
# Protein sequences, listed by entry. Tags and fused reporters are not part of them. Residues count along the entry.
# UniProt P24593, 60-112: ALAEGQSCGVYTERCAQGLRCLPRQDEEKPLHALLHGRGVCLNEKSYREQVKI
# Molecular target: T1, IGFBP-5 (Homo sapiens, UniProt P24593)
# T1 construct: His-tag (N); T7-tag (pET-28a construct only) (N); made in house; host or cells: E. coli BL21
# Test: Detection of ligand binding by 15N-HSQC NMR titration
# Conditions: changes in chemical shift for the residue L81
# Experimental: Ligand binding was detected by acquiring ^15N—HSQC spectra. All NMR spectra were acquired at 300 K on Bruker DRX600 spectrometer. The samples for NMR spectroscopy were concentrated and dialyzed against PBS buffer. Typically, the sample concentration was varied from 0.3 to 1.0 mM. Before measuring, the sample was centrifuged in order to sediment aggregates and other macroscopic particles. 450 μl of the protein solution were mixed with 50 μl of D2O (5-10%) and transferred to an NMR sample tube. The stock solutions of compounds were 100 mM either in water or in perdeuterated DMSO. pH was maintained constant during the whole titration. The binding was monitored by observation of the changes in the ^15N—HSQC spectrum. Dissociation constants were obtained by monitoring the chemical shift changes of the backbone amide of several amino acid residues (Table 9) as a function of ligand concentration. Data were fit using a single binding site model. In the same way dissociation constants for derivatives of compound 2 are estimated (Table 10).
smiles,measurement,value
"CC(C)C[C@H](NC(=O)OCC1c2ccccc2-c2ccccc21)C(=O)O [Compound 2D, Nα-FMOC-L-leucine]",Kd,1090 ± 519 µM
